Experimental data from article PMC3100226 (Journal of Pain Research, 2011).

Protein sequences, listed by entry. Tags and fused reporters are not part of them. Residues count along the entry.
UniProt P07727, 29-457: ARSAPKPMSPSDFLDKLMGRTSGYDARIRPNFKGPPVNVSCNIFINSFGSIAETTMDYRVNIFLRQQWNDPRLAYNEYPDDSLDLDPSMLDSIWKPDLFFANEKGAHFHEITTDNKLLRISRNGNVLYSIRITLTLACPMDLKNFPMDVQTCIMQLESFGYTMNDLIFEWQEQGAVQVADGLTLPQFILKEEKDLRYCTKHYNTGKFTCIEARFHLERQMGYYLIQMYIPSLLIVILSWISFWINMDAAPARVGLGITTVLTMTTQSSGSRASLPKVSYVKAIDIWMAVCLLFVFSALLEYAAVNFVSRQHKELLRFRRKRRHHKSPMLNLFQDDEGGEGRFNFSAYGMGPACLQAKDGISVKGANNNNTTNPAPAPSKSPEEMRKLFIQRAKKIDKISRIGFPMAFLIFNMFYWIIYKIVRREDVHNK

Biological target: Glycine (strychnine-sensitive) (Rattus norvegicus, UniProt P07727)
Experiment: Receptor characterization panel: glycine receptor binding
Conditions: read-out: Reference agents (IC50); [3H]Strychnine; spinal cord/rat

SMILES: NCC(=O)O [Glycine, reference compound]
- IC50: 13 µM
